In experiment [1] the target is double-headed NM-2B–HMM construct (heavy chain amino acids 1–1344 with MYL6 and MYL12b light chains) (human) (UniProt P35580).
Experiment [2] concerns the target Tpm3.1-enveloped filamentous β-actin (human) (UniProt P60709). As to the kind of experiment: stopped-flow light scattering; 4 μM NM-2B0 mixed with 0.5–4 μM bare actin or actin-Tpm complex, light scattering at 405 nm; 20 °C; 20 mM MOPS pH 7.0, 100 mM KCl, 5 mM MgCl2; no nucleotide; k+A from the slope, k−A from the y intercept, KA = k−A/k+A.
The target of experiment [3] is filamentous β-actin (human) (UniProt P60709). The experiment is described as above.
Experiment [4] addresses Tpm1.12-enveloped filamentous β-actin (human | rat) (UniProt P60709). The description is as above.
Experiment [5] deals with Tpm1.8-enveloped filamentous β-actin (human | rat) (UniProt P60709). The description is as above.
Experiment [6] shares this target.

pKd: −log10 of the molar value.

In experiment [1], “Tpm1.12-enveloped filamentous β-actin (from UniProt P60709 1-375; P04692-5 1-245) (complex)” displayed a Kapp, actin concentration required for half-maximal activation of the steady-state ATPase of NM-2B–HMM (0–50 μM actin, 3-fold molar excess of Tpm, 25 °C) of 12.2 µM and a n, landing assay (fit of landing rate against NM-2B–HMM surface density) of 1.5.

In experiment [1], “filamentous β-actin (from UniProt P60709 1-375) (natural protein)” returned a Kapp, actin concentration required for half-maximal activation of the steady-state ATPase of NM-2B–HMM (0–50 μM actin, 25 °C) of 47.5 µM and a n, landing assay (fit of landing rate against NM-2B–HMM surface density) of 5.

Turning to “single-headed construct NM-2B0 (motor domain of human NM-2B0, residues 1–782, two Dictyostelium discoideum α-actinin repeats, C-terminal octahistidine tag) (from UniProt P35580 1-782) (domain or fragment)”, the koff (commonly a measure of how fast the partners let go of each other) was 0.015 s⁻¹ in experiment [2], 0.02 s⁻¹ in experiment [3], 0.02 s⁻¹ in experiment [4] and 0.03 s⁻¹ in experiment [5]. The on-rate constant (kon) (in general, the second-order rate constant of association) in experiment [2] worked out at 490000 M⁻¹ s⁻¹; in experiment [3] it was 320000 M⁻¹ s⁻¹; in experiment [4] it was 250000 M⁻¹ s⁻¹; in experiment [5] it was 510000 M⁻¹ s⁻¹. Further, the pKd in experiment [3] and in experiment [5] was 7.22 throughout.

With “Tpm3.1-enveloped filamentous β-actin (from UniProt P60709 1-375; P06753-2 1-248) (complex)”, in experiment [1], the Kapp, actin concentration required for half-maximal activation of the steady-state ATPase of NM-2B–HMM (0–50 μM actin, 3-fold molar excess of Tpm, 25 °C) was 30.1 µM and the n, landing assay (fit of landing rate against NM-2B–HMM surface density) is 1.

In experiment [6], “double-headed NM-2B–HMM construct (heavy chain amino acids 1–1344 with MYL6 and MYL12b light chains) (from UniProt P35580 1-1344; P60660 1-151; O14950 1-172) (complex)” showed an average run length of Qdot-labelled NM-2B–HMM in the single-molecule TIRF motility assay of 650 nm.

Values taken from PMC5777259.
